From patent US8410309B2, “Phenoxy carboxylic acid compounds and compositions for delivering active agents” (Emisphere Technologies, Inc., priority 1999, dated 2013) come the findings set out here.

A short description of this data set: Insulin oral delivery, serum human insulin by ELISA. The settings on record: previous experiments, no delivery agent compound. As to the method:
Oral dosing (PO) compositions of delivery agent compound and human zinc insulin (minimum 26 IU/mg available from Calbiochem—Novabiochem Corp, La Jolla, Calif.) were prepared in deionized water. […] The pH was adjusted to about 7 to 8.5 with NaOH or HCl. […] The final delivery agent compound dose, insulin dose and dose volume amounts are listed below in Table 8.
The typical dosing and sampling protocols were as follows.
Serum insulin levels were determined with an Insulin ELISA Test Kit (Kit # DSL-10-1600 from Diagnostic Systems Laboratories, Inc., Webster, Tex.), modifying the standard protocol in order to optimize the sensitivity and linear range of the standard curve for the volumes and concentrations of the samples used in the present protocol. […] The five values for each time point were averaged and the results plotted as serum insulin concentration versus time.

Regarding human insulin [reference compound], the “levels of human insulin following oral dosing with human insulin alone” value is “no measurable levels”.
